The source of these data is PubChem BioAssay AID1460 (National Center for Advancing Translational Sciences (NCATS), 2008).

By UniProt entry, the sequences of proteins in these tests, tags left out.
UniProt P10636, whole entry, looked up: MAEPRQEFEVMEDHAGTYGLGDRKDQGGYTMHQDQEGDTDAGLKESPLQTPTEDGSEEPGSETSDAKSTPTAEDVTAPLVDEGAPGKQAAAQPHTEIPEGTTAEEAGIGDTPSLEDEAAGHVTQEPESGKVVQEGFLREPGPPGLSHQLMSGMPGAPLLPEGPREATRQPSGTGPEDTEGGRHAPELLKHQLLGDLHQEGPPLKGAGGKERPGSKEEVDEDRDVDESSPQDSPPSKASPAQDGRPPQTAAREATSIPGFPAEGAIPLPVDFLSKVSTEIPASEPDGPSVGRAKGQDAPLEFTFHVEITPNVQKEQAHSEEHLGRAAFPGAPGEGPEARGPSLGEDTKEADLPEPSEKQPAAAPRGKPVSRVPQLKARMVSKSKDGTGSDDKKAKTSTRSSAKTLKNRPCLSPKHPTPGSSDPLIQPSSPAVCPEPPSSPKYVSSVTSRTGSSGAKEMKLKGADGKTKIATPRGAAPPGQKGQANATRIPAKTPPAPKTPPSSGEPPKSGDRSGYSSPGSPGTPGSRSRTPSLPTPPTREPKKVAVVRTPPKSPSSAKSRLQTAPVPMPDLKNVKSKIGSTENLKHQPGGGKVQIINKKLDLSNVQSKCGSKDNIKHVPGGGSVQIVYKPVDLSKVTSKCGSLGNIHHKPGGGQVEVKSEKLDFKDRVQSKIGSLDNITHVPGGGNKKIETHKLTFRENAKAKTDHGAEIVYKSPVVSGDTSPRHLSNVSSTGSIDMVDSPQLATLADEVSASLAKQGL

The entries are a selection whose mix differs from that of the whole data set. Records with an inconclusive call do not appear. A call without a number means that no potency is given here. The source made the active and inactive calls. Calls follow the shape of the dose curve; as a rule, active = well fitted inhibition curve with a large enough effect; inconclusive = small, poorly fitted or top-dose-only effect; inactive = flat fitted curve, though single readings scatter.
Potency is read from the fitted curve at half-maximal effect.

The target of this test is Microtubule-associated protein tau (Homo sapiens) (UniProt P10636). Kind of test: qHTS for Inhibitors of Tau Fibril Formation, Thioflavin T Binding. Also: nearly all actives have a fitted effect of over 55% in size. The following applies: recombinant tau K18 P301L (four-repeat tau fragment), heparin-induced fibrillization, ThT fluorescence; series mostly up to 57.4 µM. Background: qHTS replaces the single test concentration by a dilution series.
For `O=P1(Nc2ncccn2)COc2ccccc2OC1`, the Potency result is “inactive”.

With `O=P1(Nc2ccc(Br)cn2)COc2ccccc2OC1`, the Potency result is “inactive”.

With `Cc1ccc(OCC(=O)OC2CN3CCC2CC3)cc1` (centres undefined), the Potency result was “inactive”.

As to `O=[As](O)(c1cccs1)c1cccs1`, the Potency entry was “inactive”.

Consider `Nc1cccc([As](=O)(O)c2ccccc2)c1`, for which the Potency result was “inactive”.

On to `Cc1nn(-c2ccccc2)c2c1P(=O)(N1CCOCC1)N(C)C(c1ccccc1)=N2` (centres undefined), for which the Potency result is “inactive”.

Consider `CC1CCC(C(C)C)C(OP(=O)(Nc2ccccn2)c2ccccc2)C1` (centres undefined), for which the Potency result was “inactive”.

As for `O=C(/C=C/c1ccccc1)OC1CN2CCC1CC2` (centres undefined), the Potency result was “inactive”.

Regarding `CN(C)C1(CNC(=O)c2ccc(S(C)(=O)=O)cc2)CCCCC1`, the Potency entry was “inactive”.

As for `O=[As](O)(c1ccccc1Br)c1ccccc1Br`, the Potency result is “inactive”.

Take `CC(C)/C=N\N=C(\N)N[N+](=O)[O-]`: the Potency result was “inactive”.

With `CN(CCCl)Cc1cc(Cl)c(NC2=NCCN2)c(Cl)c1`, the Potency entry is “inactive”.

As for `CCOP(=O)(Nc1ccc(C)cn1)OCC`, the Potency entry was “inactive”.

Take `O=P1(Nc2ccccn2)COc2ccccc2OC1`: the Potency entry was “inactive”.

On to `Clc1n[nH]nc1-c1nn[nH][15n]1`, for which the Potency entry was “inactive”.

Regarding `CCCOP(=S)(Nc1nc(N)cc(=O)[nH]1)OCCC`, the Potency entry is “inactive”.

With `Cc1ccc(NCCc2c([N+](=O)[O-])cc([N+](=O)[O-])cc2[N+](=O)[O-])cc1`, the Potency is active: 15.8 µM.

In the case of `COc1cc(C2NCCC3(OCCO3)C2(C)C)cc(OC)c1OC` (centres undefined), the Potency result is “inactive”.

As for `CCOP(=O)(Nc1cccc2ccccc12)OCC`, the Potency entry was “inactive”.

Regarding `COc1cc(C(=O)NCC2(N3CCOCC3)CCCCC2)cc(Cl)c1OC(C)C`, the Potency entry was “inactive”.

On to `O=[As](O)(O)c1cccnc1`, for which the Potency result was “inactive”.

On to `O=C(OC1CN2CCC1CC2)c1ccc(Cl)cc1` (centres undefined), for which the Potency result was “inactive”.

On to `CN(C(=O)Cc1ccc(Cl)c(Cl)c1)[C@@H]1CC[C@]2(CCCO2)C[C@H]1N1CCCC1`, for which the Potency result is “inactive”.

With `O=[As](O)(c1cccc(O)c1)c1cccc(O)c1`, the Potency entry is “inactive”.

In the case of `Cc1cccc(OCC(=O)OC2CN3CCC2CC3)c1` (centres undefined), the Potency entry was “inactive”.

With `NC(=O)Nc1ccc([As](=O)(O)O)cc1`, the Potency result was “inactive”.

Consider `O=[N+]([O-])CC(O)c1ccc([N+](=O)[O-])cc1` (centres undefined), for which the Potency entry is “inactive”.

Turning to `O=[N+]([O-])c1ccc2c(c1)nnn2O`, the Potency entry is “inactive”.

In the case of `CN(C(=O)Cc1ccccc1)[C@@H]1CC[C@]2(CCCO2)C[C@H]1N1CCCC1`, the Potency result was “inactive”.

Regarding `CCOP1(=S)c2c(C)nn(CCC#N)c2N=C(c2ccc(F)cc2)N1C` (centres undefined), the Potency result was “inactive”.

Consider `CS(=O)(=O)c1cc([N+](=O)[O-])c2no[n+]([O-])c2c1`, for which the Potency was active: 8.91 µM.

For the compound `CCOP1(=S)c2c(C)nn(CCC#N)c2N=C(c2ccccc2F)N1C` (centres undefined), the Potency result is “inactive”.

As for `O=P(Nc1nccs1)(Oc1ccccc1)Oc1ccccc1`, the Potency result is “inactive”.

As to `Nc1ccccc1[As](=O)(O)c1ccccc1`, the Potency result was “inactive”.

Turning to `O=C(O)COc1ccc([As](=O)(O)O)cc1[N+](=O)[O-]`, the Potency result was “inactive”.

Consider `CC(C)c1ccc(OP(=O)(Nc2ccccn2)Oc2ccccc2F)cc1` (centres undefined), for which the Potency result is “inactive”.

As for `ClCCSc1nnc(-c2cccnc2)o1`, the Potency result was “inactive”.

In the case of `CC(C)NC(=O)NP(=O)(Oc1ccccc1)Oc1ccccc1`, the Potency entry was “inactive”.

Take `O=[As](O)(c1ccc(O)cc1)c1ccccc1O`: the Potency entry was “inactive”.

As for `C[As](=O)(O)c1cccc(C(=O)O)c1`, the Potency result is “inactive”.

For the compound `Cc1ccc(OP(=O)(Nc2ccc([N+](=O)[O-])cn2)Oc2ccc(C)cc2)cc1`, the Potency entry is “inactive”.

For `COc1ccc(N/C(=N/P(=O)(N2CCOCC2)N2CCOCC2)N2CCOCC2)cc1`, the Potency entry is “inactive”.

`O=C(OC1CN2CCC1CC2)C12CC3CC(CC(C3)C1)C2` (centres undefined): the Potency entry was “inactive”.

On to `Cc1cc(=O)[nH]c(N[N+](=O)[O-])n1`, for which the Potency result is “inactive”.

`COc1ccc2nc(NP(=O)(c3ccccc3)c3ccccc3)sc2c1`: the Potency entry was “inactive”.

Regarding `COc1cc(I)ccc1[As](=O)(O)O`, the Potency result was “inactive”.

As for `CCOC(=O)c1ccc(NC(=O)C(C)(CCl)SC)cc1` (centres undefined), the Potency entry is “inactive”.

Regarding `COP1(=S)c2c(C)nn(CCC#N)c2N=C(c2ccc(F)cc2)N1C` (centres undefined), the Potency entry is “inactive”.

On to `O=C(COc1ccccc1)OC1CN2CCC1CC2` (centres undefined), for which the Potency result is “inactive”.

As for `CCOC(=O)Nc1cccc([As](=O)(O)O)c1`, the Potency entry was “inactive”.

For `O=[N+]([O-])c1ccc(Nc2ccc(Oc3ccc([N+](=O)[O-])cc3[N+](=O)[O-])cc2)c([N+](=O)[O-])c1`, the Potency entry was “inactive”.

For `O=P(Nc1ccccn1)(c1cccc2ccccc12)c1cccc2ccccc12`, the Potency result was “inactive”.

Take `Cc1cc(SC(NC=O)C(Cl)(Cl)Cl)ncn1` (centres undefined): the Potency entry is “inactive”.

For the compound `CCOC(=O)Nc1ccc([As](=O)(O)O)c(O)c1`, the Potency entry was “inactive”.

Regarding `O=[N+]([O-])c1ncn(CCn2ncnc2[N+](=O)[O-])n1`, the Potency result was “inactive”.

Turning to `O=[N+]([O-])c1cccc(NC2=NCC(CBr)S2)c1` (centres undefined), the Potency result was “inactive”.

`O=C(O)CNc1ccc([As](=O)(O)O)cc1`: the Potency result was “inactive”.

As to `O=C(Nc1cc([As](=O)(O)O)ccc1O)c1ccccc1`, the Potency result was “inactive”.

As for `Nc1ccc([As](=O)(O)c2ccc(N)cc2)cc1`, the Potency result was “inactive”.

For the compound `CCN(/C(=N/P(=O)(N1CCOCC1)N1CCOCC1)N1CCOCC1)c1ccc(OC)cc1`, the Potency entry is “inactive”.

For the compound `CC(C)=N/N=C(\N)N[N+](=O)[O-]`, the Potency entry was “inactive”.

As to `CN(C)C(=O)OCCc1n(C)cc[n+]1C`, the Potency result is “inactive”.

For the compound `CC1CCN(C(=O)Oc2c(Cl)cc(Cl)c3cccnc23)CC1`, the Potency result was “inactive”.

On to `CC(=O)C1=CCCC2CCC1N2` (centres undefined), for which the Potency entry is “inactive”.

As to `O=[N+]([O-])c1cccc2n[nH]nc12`, the Potency entry was “inactive”.

For the compound `CC(=O)N1C2C3N(C(C)=O)C1C1N(C(C)=O)C(C(N1C(C)=O)N3C(C)=O)N2C(C)=O`, the Potency entry was “inactive”.

`Cc1ccc(NP(=O)(Oc2ccccc2)Oc2ccccc2)nc1`: the Potency result is “inactive”.

For `O=[N+]([O-])c1cc([N+](=O)[O-])c(CCNc2ccccc2)c([N+](=O)[O-])c1`, the Potency is active: 2.82 µM.

Turning to `CC(C)CC(=O)NC(Sc1ccc(Cl)cc1)C(Cl)(Cl)Cl` (centres undefined), the Potency result was “inactive”.

On to `Oc1ccccc1CNc1ccccn1`, for which the Potency entry is “inactive”.

In the case of `Cc1c2non([O-])c-2c(C)[n+](=O)[n+]1[O-]`, the Potency was active: 11.2 µM.

As for `O=C(NC(Sc1ccncn1)C(Cl)(Cl)Cl)c1ccccc1` (centres undefined), the Potency entry is “inactive”.

`NC(=O)c1cc([N+](=O)[O-])cc([N+](=O)[O-])c1N`: the Potency result is “inactive”.

Regarding `CC1=NCCc2c1[nH]c1ccccc21`, the Potency is active: 12.6 µM.

With `Cc1ccc(N/C(=N/P(=O)(N2CCOCC2)N2CCOCC2)N2CCOCC2)cc1`, the Potency entry is “inactive”.

As for `COc1ccccc1OP(=O)(Nc1ccc(C)cn1)Oc1ccccc1OC`, the Potency entry is “inactive”.

For `Cc1ccc(OP(=O)(Nc2nccs2)Oc2ccc(C)cc2)cc1`, the Potency result was “inactive”.

As to `Clc1ccc(Cl)c(NC2=NCC(CBr)S2)c1` (centres undefined), the Potency entry is “inactive”.

For the compound `CN1CCCC(OC(=O)C(c2ccccc2)c2ccccc2)C1` (centres undefined), the Potency result is “inactive”.

Turning to `CCN(N=Nc1nonc1N)c1nonc1N`, the Potency entry is “inactive”.

On to `CC(=O)Nc1ccc([As](=O)(O)O)cc1`, for which the Potency entry was “inactive”.

For `O=P(Nc1nc2ccc(Cl)cc2s1)(c1ccccc1)c1ccccc1`, the Potency entry was “inactive”.

Consider `CCOP(=O)(Nc1ccccc1)OCC`, for which the Potency entry is “inactive”.

Regarding `Cc1cc(SC(NC(=O)c2ccc(F)cc2)C(Cl)(Cl)Cl)ncn1` (centres undefined), the Potency entry is “inactive”.

Consider `Cc1ccc(NP(=O)(Oc2ccccc2F)Oc2ccccc2F)nc1`, for which the Potency entry is “inactive”.

For `COC(=O)c1cc2c(s1)N=C(c1ccccc1)N(C)P2(=O)N1CCOCC1` (centres undefined), the Potency result is “inactive”.

As for `CC(=O)NC(SC(=S)N(CC(C)C)CC(C)C)C(Cl)(Cl)Cl` (centres undefined), the Potency entry is “inactive”.

As to `Cc1ccc(OP(=O)(Nc2ccccn2)Oc2ccc(C)cc2)cc1`, the Potency result was “inactive”.

Take `CCC(=O)N1C2C3N(C(=O)CC)C1C1N(C(=O)CC)C(C(N1C(=O)CC)N3C(=O)CC)N2C(=O)CC`: the Potency entry is “inactive”.

Consider `Cc1ccccc1OP(=O)(Nc1ccccn1)Oc1ccccc1C`, for which the Potency result was “inactive”.

Turning to `CN(C)C(=O)Oc1noc2ccccc12`, the Potency result was “inactive”.

With `O=c1c2cc([N+](=O)[O-])ccc2[nH]c2c([N+](=O)[O-])cc([N+](=O)[O-])cc12`, the Potency is active: 14.1 µM.

Turning to `CCNC(=S)/N=C(\N)N[N+](=O)[O-]`, the Potency entry is “inactive”.

As for `O=C(NC1CCS(=O)(=O)C1)NP(=S)(Oc1ccccc1)Oc1ccccc1` (centres undefined), the Potency result was “inactive”.

For the compound `c1ccc(-c2nn[nH]n2)c(-c2nn[nH]n2)c1`, the Potency entry was “inactive”.

As for `Cc1ccc(NP(=O)(Oc2cccc(C)c2)Oc2cccc(C)c2)nc1`, the Potency result is “inactive”.

For `CCOC(=O)NC(Sc1ccccc1)C(Cl)(Cl)Cl` (centres undefined), the Potency entry was “inactive”.

For `C[C@@H]1C=CCP(=O)(Oc2ccccc2)O1` (some centres undefined), the Potency entry was “inactive”.

Regarding `C[C@H]1OP(=O)(Oc2ccccc2)C[C@@H]2O[C@@H]21` (some centres undefined), the Potency result was “inactive”.

`CC(=O)Nc1ccc([As](=O)(O)O)c(O)c1`: the Potency entry was “inactive”.

For the compound `CC(=O)Nc1ccc(Oc2c([N+](=O)[O-])cc([N+](=O)[O-])cc2[N+](=O)[O-])cc1`, the Potency entry was “inactive”.

In the case of `O=P1(Nc2nc3ccc(Cl)cc3s2)COc2ccccc2O1` (centres undefined), the Potency result was “inactive”.

In the case of `CCOc1ccc(C2=NCC(CBr)S2)cc1` (centres undefined), the Potency entry was “inactive”.

Regarding `CC(C)(C)C(=O)NC(Sc1ccccc1)C(Cl)(Cl)Cl` (centres undefined), the Potency entry was “inactive”.

On to `CC(C)C(=O)NC(Sc1ccccc1)C(Cl)(Cl)Cl` (centres undefined), for which the Potency result was “inactive”.

Turning to `O=P(Nc1nccs1)(c1ccccc1)c1ccccc1`, the Potency entry is “inactive”.

Consider `c1nnnn1CCn1cnnn1`, for which the Potency result was “inactive”.

For `O=[As](O)(c1ccccc1)c1ccc(O)cc1`, the Potency entry was “inactive”.

For `Nc1ccc([As](=O)(O)c2ccc([N+](=O)[O-])cc2)cc1`, the Potency result is “inactive”.

In the case of `C(Cc1nn[nH]n1)Cc1nn[nH]n1`, the Potency result was “inactive”.

As for `O=C(OC1CN2CCC1CC2)c1cccc(Cl)c1` (centres undefined), the Potency result was “inactive”.

Consider `O=P(Nc1ccccn1)(c1ccc(Br)cc1)c1ccc(Br)cc1`, for which the Potency result was “inactive”.

On to `C[C@H]1OP(=O)(Oc2ccccc2)[C@H](O)[C@H](O)[C@H]1N=[N+]=[N-]` (some centres undefined), for which the Potency entry is “inactive”.

Turning to `CN(C(=O)Cc1ccccc1)[C@H]1CC[C@@]2(CCCO2)C[C@@H]1N1CCCC1`, the Potency entry is “inactive”.
